Experiments:
Format in all cases: biochemical
[1] = target: GST-Chk1 enzyme (Homo sapiens, UniProt O14757); test: Chk1 kinase assay (33P Chktide phosphorylation); conditions: read-out: CHK-1 IC50; 0.01 mM ATP, 40 minutes at 30° C.
[2] = target: PKA (Homo sapiens, UniProt P17612); test: PKA kinase assay (Kemptide substrate); conditions: read-out: PKA IC50, 100 μM ATP
[3] = target: PDK1 (Homo sapiens, UniProt O15530); test: PDK1 kinase assay (33P peptide phosphorylation); conditions: read-out: PDK-1 IC50; 0.01 mM ATP, 60 min at 30° C.
[4] = target: Akt1 (Homo sapiens, UniProt P31749); test: Akt1 kinase assay (Histone H1 substrate); conditions: read-out: AKT-1 IC50, 200 μM ATP
Description: Assays for the cyclin dependent kinase activity were carried out by monitoring the phosphorylation of a synthetic peptide, […]. The assay mixture containing the inhibitor and CDK-2 enzyme, complexed with cyclin A (0.4 U/ml) was mixed together in a microtiter plate in a final volume of 50 μl and incubated for 40 min at 30° C. The assay mixture contained 0.1 mM unlabeled ATP, 0.01 μCi/μl ^33P-γ-ATP, 0.03 mM peptide, 0.1 mg/ml BSA, 7.5 mM magnesium acetate, 50 mM HEPES-NaOH, pH 7.5. The reaction was stopped by adding 50 μl of 50 mM phosphoric acid. 90 μl of the mixture were transferred to a pre-wetted 96-well Multiscreen MAPHNOB filtration plate (Millipore) and filtered on a vacuum manifold. The filter plate was washed with 3 successive additions of 200 μl 50 mM phosphoric acid and then with 100 μl methanol. The filtration plate was dried for 10 min at 65° C., scintillant added and phosphorylated peptide quantified in a scintillation counter (Trilux, PerkinElmer)
Protocol for the Akt assay is the same for CDK2 except that, 3 nM Akt1 (Upstate) was used with Histone H1 as substrate with a final ATP concentration of 200 μM. The reaction was incubated at 30° C. for 40 minutes.

By UniProt entry, the sequences of proteins in these tests, tags left out.
UniProt O14757, whole entry: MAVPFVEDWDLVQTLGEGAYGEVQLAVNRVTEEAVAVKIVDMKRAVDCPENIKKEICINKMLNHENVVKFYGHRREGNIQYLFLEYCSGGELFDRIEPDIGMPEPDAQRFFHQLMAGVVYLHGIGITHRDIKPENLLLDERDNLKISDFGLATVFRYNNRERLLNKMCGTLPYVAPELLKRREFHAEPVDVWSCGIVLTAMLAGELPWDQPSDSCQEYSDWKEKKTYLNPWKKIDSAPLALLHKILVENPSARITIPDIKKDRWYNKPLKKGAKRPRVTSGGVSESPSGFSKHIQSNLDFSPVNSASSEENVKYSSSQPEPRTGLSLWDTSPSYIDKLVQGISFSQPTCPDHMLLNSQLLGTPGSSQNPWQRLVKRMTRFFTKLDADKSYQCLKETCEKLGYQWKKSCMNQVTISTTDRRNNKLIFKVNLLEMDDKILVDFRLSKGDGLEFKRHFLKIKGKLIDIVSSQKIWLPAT
UniProt O15530, whole entry: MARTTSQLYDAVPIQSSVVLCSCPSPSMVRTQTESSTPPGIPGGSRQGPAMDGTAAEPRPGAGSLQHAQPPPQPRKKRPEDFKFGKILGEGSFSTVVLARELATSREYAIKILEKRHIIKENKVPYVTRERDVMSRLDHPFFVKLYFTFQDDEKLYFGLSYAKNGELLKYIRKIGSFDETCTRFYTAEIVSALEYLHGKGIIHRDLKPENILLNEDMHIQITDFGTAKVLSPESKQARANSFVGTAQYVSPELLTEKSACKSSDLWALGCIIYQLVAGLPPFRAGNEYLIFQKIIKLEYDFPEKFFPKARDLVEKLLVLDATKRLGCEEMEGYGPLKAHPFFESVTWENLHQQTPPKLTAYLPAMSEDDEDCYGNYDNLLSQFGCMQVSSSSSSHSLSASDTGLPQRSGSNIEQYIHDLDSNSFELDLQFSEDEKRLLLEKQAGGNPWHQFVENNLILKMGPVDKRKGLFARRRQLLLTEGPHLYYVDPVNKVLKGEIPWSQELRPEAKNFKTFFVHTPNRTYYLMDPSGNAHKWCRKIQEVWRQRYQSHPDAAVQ
UniProt P31749, whole entry: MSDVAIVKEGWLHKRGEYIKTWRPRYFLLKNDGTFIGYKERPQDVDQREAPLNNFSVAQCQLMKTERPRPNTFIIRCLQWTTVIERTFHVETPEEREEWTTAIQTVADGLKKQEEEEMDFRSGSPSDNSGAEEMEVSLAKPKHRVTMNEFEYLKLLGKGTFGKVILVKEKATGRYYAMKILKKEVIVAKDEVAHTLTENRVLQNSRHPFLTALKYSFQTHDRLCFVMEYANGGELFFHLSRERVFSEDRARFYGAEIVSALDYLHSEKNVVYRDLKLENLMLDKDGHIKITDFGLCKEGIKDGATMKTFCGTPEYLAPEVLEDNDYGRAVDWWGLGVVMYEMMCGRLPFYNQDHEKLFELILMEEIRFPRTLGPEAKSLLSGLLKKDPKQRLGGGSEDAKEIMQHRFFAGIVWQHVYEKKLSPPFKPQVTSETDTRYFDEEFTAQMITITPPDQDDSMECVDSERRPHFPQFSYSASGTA

[5] = target: CDK-2 enzyme, complexed with cyclin A (Homo sapiens, UniProt P24941); test: CDK2 kinase assay (33P peptide phosphorylation); conditions: read-out: CDK-2 IC50; 0.1 mM ATP, cyclin A complex

Structure (SMILES): Cc1[nH]nc(-c2nc3ccc(-c4cc5cc(Cl)ccc5[nH]4)cc3[nH]2)c1C(=O)NC1CCNCC1
- IC50 [1]: 0.058 µM
- IC50 [2]: 3.62 µM
- IC50 [3]: 0.155 µM
- IC50 [4]: > 10 µM
- IC50 [5]: 12.8 µM
